pIC50: −log10 of the molar value.
Assays:
sEH [1] = molecular target: T1, sEH (Mus musculus, UniProt P34914); conditions: DIO mice, 100 mg/kg twice a day, up to 7 hours post administration
sEH [2] = molecular target: T1, sEH; assay: in vivo; conditions: po, read-out: inhibition of blood sEH activity
sEH [3] = conditions: humans, once a day and twice a day dosing; cited from earlier work
sEH [4] = conditions: read-out: sEH IC50; cited from earlier work

The chains behind the UniProt entries cited, without tags or fusion partners. Where a name states a change or a piece, a line headed by the entry shows the natural chain unless it says otherwise.
UniProt P34914: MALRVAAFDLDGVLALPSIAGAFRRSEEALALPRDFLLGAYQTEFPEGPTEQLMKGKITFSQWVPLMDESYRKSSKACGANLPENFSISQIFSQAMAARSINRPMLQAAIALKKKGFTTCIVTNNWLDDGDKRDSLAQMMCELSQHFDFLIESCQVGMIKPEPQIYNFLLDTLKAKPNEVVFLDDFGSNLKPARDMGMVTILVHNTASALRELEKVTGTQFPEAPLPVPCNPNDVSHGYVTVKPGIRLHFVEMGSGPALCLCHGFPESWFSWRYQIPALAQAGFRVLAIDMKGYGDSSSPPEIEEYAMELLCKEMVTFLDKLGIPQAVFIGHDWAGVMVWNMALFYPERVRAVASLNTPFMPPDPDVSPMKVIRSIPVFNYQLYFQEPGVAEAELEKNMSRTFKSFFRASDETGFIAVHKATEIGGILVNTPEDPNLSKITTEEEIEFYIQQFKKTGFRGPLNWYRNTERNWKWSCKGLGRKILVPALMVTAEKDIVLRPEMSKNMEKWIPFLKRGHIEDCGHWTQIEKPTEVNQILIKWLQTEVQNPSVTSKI

Molecule | whole blood sEH activity (sEH [1]) | inhibition at 100 mg/kg (sEH [2]) | inhibition of blood sEH (sEH [3]) | pIC50 (sEH [4])
CC(=O)N1CCC(NC(=O)NC23CC4CC(CC(C4)C2)C3)CC1 [Compound 14a, 1-(1-Acetyl-piperidin-4-yl)-3-adamantan-1-yl-urea] | undetectable | ≥ 90% | greater than 90% | 
adamantyl ureido dodecanoic acid [AUDA] |  |  |  | ~8.52
dicyclohexyl urea [DCU] |  |  |  | ~7.28
